Experimental findings from article PMC10175095 (Therapeutic drug monitoring, 2023) are described below.

A short description of series [1]: Pre-processed stability in human plasma. Type of series: in vitro ADME. As to conditions: 2.5 h.
The nature of series [2]: Reinjection stability in final extract. The series is classed as physicochemical. Conditions: reinjected, 4°C, autosampler, 25.95 h.
Series [3] can be described thus: Processed sample stability in final extract. As to conditions: 4°C, autosampler, 25.1 h. The series is classed as physicochemical.
Series [4] can be described thus: Freeze-thaw stability of unprocessed plasma samples. The series is classed as in vitro ADME. As to conditions: human plasma, 3 freeze (-80°C)-thaw cycles, nominal 15 ng/mL.
The nature of series [5]: Long-term stability of unprocessed plasma samples at −80°C. The series is classed as in vitro ADME. As to conditions: human plasma.
[6] abbreviates: RT (20–25°C), yellow light, nominal 1500 ng/mL.

Regarding `CCN1CCN(Cc2ccc(Nc3ncc(F)c(-c4cc(F)c5nc(C)n(C(C)C)c5c4)n3)nc2)CC1` [Abemaciclib, abemaciclib], the “Accuracy vs. nominal concentration” value in series [1] (37°C, dark, nominal 15 ng/mL) came to 103%; in series [1] (37°C, dark, nominal 1500 ng/mL), 102%; in series [1] (RT (20–25°C), yellow light, nominal 15 ng/mL), 105%; in series [1] (setting [6]), 103%; in series [2] (nominal 150 ng/mL), 104%; in series [2] (nominal 1500 ng/mL) it was 102%. Besides, the “Accuracy vs. nominal concentration” value in series [3] (nominal 15 ng/mL) is reported as 106%; in series [3] (nominal 1500 ng/mL) it was 101%; in series [4], 101%; in series [5] (3 months, nominal 15 ng/mL), 97.8%; in series [5] (3 months, nominal 150 ng/mL), 99.3%; in series [5] (3 months, nominal 1500 ng/mL), 95.8%. Moreover, the “Accuracy vs. nominal concentration” value in series [5] (7 months, nominal 15 ng/mL) worked out at 93.8%; in series [5] (7 months, nominal 150 ng/mL), 104%; in series [5] (7 months, nominal 1500 ng/mL), 96.2%; in series [5] (12 months, nominal 15 ng/mL), 102%; in series [5] (12 months, nominal 1500 ng/mL), 106%. Also, the “Accuracy vs fresh QCs” value in series [1] (37°C, dark, nominal 1500 ng/mL) was 103%; in series [1] (setting [6]), 105%; in series [4], 103%; in series [5] (7 months, nominal 15 ng/mL), 112%; in series [5] (12 months, nominal 15 ng/mL), 112%.
